{
  "sequences": {"note": "Amino acid sequences for entries named in this document (tags omitted).", "UniProt P28907, whole entry": "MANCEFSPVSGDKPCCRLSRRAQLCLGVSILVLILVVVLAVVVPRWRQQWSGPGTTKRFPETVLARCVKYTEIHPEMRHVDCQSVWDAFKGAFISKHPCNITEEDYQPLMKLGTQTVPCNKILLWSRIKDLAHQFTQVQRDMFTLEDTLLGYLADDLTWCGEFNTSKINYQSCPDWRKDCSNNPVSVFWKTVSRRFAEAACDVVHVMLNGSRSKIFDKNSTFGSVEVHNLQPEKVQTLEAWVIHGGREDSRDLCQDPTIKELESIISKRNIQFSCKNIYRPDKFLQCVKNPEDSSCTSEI", "UniProt P56528, whole entry": "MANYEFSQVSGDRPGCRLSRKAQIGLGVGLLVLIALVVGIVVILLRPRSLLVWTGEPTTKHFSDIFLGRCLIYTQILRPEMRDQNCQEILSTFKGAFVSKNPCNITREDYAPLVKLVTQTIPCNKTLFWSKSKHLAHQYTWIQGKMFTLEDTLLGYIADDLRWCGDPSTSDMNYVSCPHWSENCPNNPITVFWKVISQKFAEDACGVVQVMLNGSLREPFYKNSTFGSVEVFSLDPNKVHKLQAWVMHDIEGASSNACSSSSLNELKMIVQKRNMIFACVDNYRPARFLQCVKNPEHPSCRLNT"},
  "source": "patent US20230116972A1",
  "about": "“CD38 MODULATORS AND METHODS OF USE THEREOF” (Cytokinetics, Inc., priority 2021, published 2023)",
  "key": {"[1]": {"target": "human CD38 (Homo sapiens, UniProt P28907)", "experiment": "human recombinant CD38 enzyme assay (hydrolysis of NAD+)", "conditions": "read-out: hCD38 BioChem IC50; human recombinant CD38, 0.4 nM enzyme, 62.5 μM NAD+"}, "[2]": {"target": "mouse CD38 (Mus musculus, UniProt P56528)", "experiment": "mouse recombinant CD38 enzyme assay (hydrolysis of NAD+)", "assay_type": "biochemical", "conditions": "read-out: mCD38 BioChem IC50"}, "[3]": {"target": "endogenous CD38 in HL60 cells (Homo sapiens, UniProt P28907)", "experiment": "cellular CD38 assay in HL60 cells (cellular NAD levels)", "conditions": "read-out: hCD38 HL60 ATRA NAD Cell Diaphorase IC50, all-trans retinoic acid, 24 hours"}},
  "data": [
    {"smiles": "O=C(Nc1cccnc1)c1cccc(-n2ccnc2)n1", "values": [
      {"measurement": "IC50", "setting": "[1]", "result": 10, "unit": "nM"},
      {"measurement": "IC50", "setting": "[2]", "result": 8, "unit": "nM"},
      {"measurement": "IC50", "setting": "[3]", "result": 280, "unit": "nM"}
    ]}
  ]
}
